From ChEMBL document CHEMBL5724796, “Tm Shift (DSF) assay results for EUbOPEN Chemogenomics Library” (2024)
Most of the highest values are listed elsewhere, so they are rarer here than in the full data.

Legend:
[1] = target: Bromodomain-containing protein 4 (Homo sapiens) (UniProt O60885); conditions: Compound concentration 20.0 uM
[2] = target: T1, Aurora kinase A (Homo sapiens) (UniProt O14965); conditions: Compound concentration 20.0 uM
T1 sequence (whole entry): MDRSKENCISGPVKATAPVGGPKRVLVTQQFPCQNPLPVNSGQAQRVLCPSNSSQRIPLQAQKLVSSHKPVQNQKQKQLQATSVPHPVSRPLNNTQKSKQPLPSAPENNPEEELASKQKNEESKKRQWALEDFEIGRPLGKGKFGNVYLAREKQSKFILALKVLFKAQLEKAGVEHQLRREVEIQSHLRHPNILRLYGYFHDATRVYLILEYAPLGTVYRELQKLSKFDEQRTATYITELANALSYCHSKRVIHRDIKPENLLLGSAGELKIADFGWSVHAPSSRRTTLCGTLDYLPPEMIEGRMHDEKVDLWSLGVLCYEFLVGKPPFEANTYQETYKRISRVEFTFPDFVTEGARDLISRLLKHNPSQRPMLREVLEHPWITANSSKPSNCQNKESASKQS

COc1ccccc1S(=O)(=O)Nc1ccc2c(c1)CN(C)C(=O)N2
ΔTm [1]: 4.91 °C

CNCc1ccc(-c2[nH]c3cc(F)cc4c3c2CCNC4=O)cc1
ΔTm [2]: -1.43 °C
